Measured values published in patent US20080200556A1, “Amine Compounds And Inhibiting Neurotrasmitter Reuptake” (MAYO FOUNDATION FOR MEDICAL EDUCATION AND RESEARCH, priority 2004, published 2008).

Legend:
Male Sprague-Dawley rats = test: Forced swim test in rats; format: in vivo, rat
Excerpt: When rats are placed in a cylinder of water from which they cannot escape, they will remain immobile in the water for the majority of the test. Administration of antidepressants to rats decreases the amount of time spent immobile and increases swimming activity in the chamber (Porsolt et al., Nature, 266:730-732 (1977)). This test can be used to screen compounds for potential antidepressant activity (Cryan et al., Trends Pharmacol. Sci., 23:238-245 (2002)).
Male Sprague-Dawley rats (200-250 g) were individually placed in vertical cylinders (height 40 cm, internal diameter 19 cm) containing water (25° C.) to a level of 15 cm, as described elsewhere (Porsolt et al., Nature, 266:730-732 (1977)). Water was changed between trials, and the procedure involved a pretest and a 5-minute test separated by 24 hours. During the pretest, rats (adapted to the experimental room for no less than 1 hour) were placed in the cylinder for 15 minutes. […]
A time sampling technique was used to score behavior every 5 seconds during the 5 minute test period as described elsewhere (Detke et al., Psychopharmacology (Berl), 121:66-72 (1995)). At the end of each 5-second interval, the rat's behavior was observed and scored based on the criteria described elsewhere (Porsolt et al., Nature, 266:730-732 (1977)). […] Scores for each behavior (swimming or immobility) were expressed as total counts per 5-minute session. […]

Male C57B1/6J mice = test: Tail suspension test in mice; format: in vivo, mouse
Excerpt: A tail suspension test in mice similar to that described elsewhere (Steru et al., Psychopharmacology (Berl), 85:367-370 (1985)) can corroborate the results found using the forced swim test, with possible sensitivity to a broader range of antidepressants. When mice are suspended by their tail, there is an initial period of agitation, followed by immobility. This test identifies antidepressant compounds, which decrease the duration of immobility.
Mice were then individually suspended by their tails 35 cm above the tabletop using an adhesive tape placed 1 cm from the tip of the tail. Behavior was scored every 5 seconds throughout the 6-minute test as either mobile or immobile. Mice were considered immobile only when hanging passively and completely motionless. Scores for each behavior were expressed as total counts per […]. Statistical analysis was performed using ANOVA followed by the Tukey test for post-hoc comparisons.

CN(C)CC(c1ccc2ccccc2c1)C(O)C1CCCCC1 (racemic) [PRC025, (2RS,3SR)-N,N-dimethyl-3-cyclohexyl-3-hydroxy-2-(2′-naphthyl)propylamine]
antidepressant activity in forced swim test (in words) (Male Sprague-Dawley rats; PRC025 10 mg/kg i.p., compared with imipramine 15 mg/kg): antidepressant activity that was similar to that observed in rats treated with the positive control | swimming behavior versus saline (in words) (Male Sprague-Dawley rats; i.p., imipramine 15 mg/kg, PRC025 10 mg/kg): statistically more swimming behavior than rats treated with saline | antidepressant activity in tail suspension test (in words) (Male C57B1/6J mice; PRC025 10 mg/kg i.p.): exhibited antidepressant activity | mobile behavior versus saline (in words) (Male C57B1/6J mice; i.p., PRC025 10 mg/kg, imipramine): statistically more mobile behavior than mice treated with saline
